Literature values in patent US10449216B2, “Modulating drug effects against metabotropic glutamate receptor with extracellular calcium” (GEORGIA STATE UNIVERSITY RESEARCH FOUNDATION, INC., priority 2013, dated 2019).

Amino acid sequences for entries named in this document (tags omitted). Residues count along the entry.
UniProt P41594, 21-1212: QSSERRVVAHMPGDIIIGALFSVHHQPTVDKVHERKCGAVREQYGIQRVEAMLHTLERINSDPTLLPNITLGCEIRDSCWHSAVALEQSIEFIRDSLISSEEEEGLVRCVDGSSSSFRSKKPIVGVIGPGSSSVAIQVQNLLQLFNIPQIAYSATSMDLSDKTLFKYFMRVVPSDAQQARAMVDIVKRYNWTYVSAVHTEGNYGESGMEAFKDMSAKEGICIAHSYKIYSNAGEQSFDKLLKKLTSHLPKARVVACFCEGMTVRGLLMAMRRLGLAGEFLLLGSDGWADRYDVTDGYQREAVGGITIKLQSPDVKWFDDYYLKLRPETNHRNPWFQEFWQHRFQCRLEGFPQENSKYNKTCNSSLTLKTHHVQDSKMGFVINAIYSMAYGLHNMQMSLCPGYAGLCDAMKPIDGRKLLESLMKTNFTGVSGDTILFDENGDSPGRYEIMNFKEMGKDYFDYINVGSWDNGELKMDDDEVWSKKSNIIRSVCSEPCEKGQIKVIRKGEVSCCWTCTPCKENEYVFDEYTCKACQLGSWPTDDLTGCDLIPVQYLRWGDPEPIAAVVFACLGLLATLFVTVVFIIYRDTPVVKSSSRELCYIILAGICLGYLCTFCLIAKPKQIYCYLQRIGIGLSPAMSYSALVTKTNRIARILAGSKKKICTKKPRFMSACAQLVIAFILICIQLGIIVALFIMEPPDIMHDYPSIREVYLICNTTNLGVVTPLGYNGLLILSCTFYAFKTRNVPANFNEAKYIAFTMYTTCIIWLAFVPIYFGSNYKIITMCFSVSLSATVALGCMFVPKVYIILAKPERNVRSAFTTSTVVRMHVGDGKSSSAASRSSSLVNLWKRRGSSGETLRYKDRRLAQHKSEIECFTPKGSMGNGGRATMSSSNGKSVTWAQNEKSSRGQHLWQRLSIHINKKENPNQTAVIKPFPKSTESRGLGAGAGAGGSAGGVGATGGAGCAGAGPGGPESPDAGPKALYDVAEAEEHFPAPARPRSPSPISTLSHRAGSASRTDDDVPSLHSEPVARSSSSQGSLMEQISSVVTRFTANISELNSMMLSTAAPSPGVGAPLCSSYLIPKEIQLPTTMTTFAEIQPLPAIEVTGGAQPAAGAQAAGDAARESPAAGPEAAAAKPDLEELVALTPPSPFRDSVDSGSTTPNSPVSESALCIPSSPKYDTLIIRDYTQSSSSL

Biological target: mGluR5 (Homo sapiens, UniProt P41594)
Conditions: mGluR5, Sp. Hs; cited from earlier work

## MTEP
  Affinity (pKi): 7.8 pKi
